Results taken from ChEMBL document CHEMBL1821642, “Discovery of 7-hydroxy-6-methoxy-2-methyl-3-(3,4,5-trimethoxybenzoyl)benzo[b]furan (BNC105), a tubulin polymerization inhibitor with potent antiproliferative and tumor vascular disrupting properties” (J Med Chem, 2011).

System: HUVEC
Test: Selectivity ratio of IC50 for HUVEC grown in absence of growth factors to IC50 for HUVEC grown in presence of growth factors
Format: functional, Homo sapiens

SMILES: COc1cc(C(=O)c2coc3c(O)c(OC)ccc23)cc(OC)c1OC
- Ratio IC50: 3.9
